From patent US20150111836A1, “CELLULAR APOBEC3 PROTEINS AND MODULATORS THEREOF FOR REGULATING DNA REPAIR PROCESSES AND TREATING PROLIFERATIVE DISEASES” (priority 2012, published 2015)

Sequences of proteins named here, by UniProt entry; tags and fusion partners are left off. A change or cut given only in a name is not applied to a line headed by its entry.
UniProt Q9HC16: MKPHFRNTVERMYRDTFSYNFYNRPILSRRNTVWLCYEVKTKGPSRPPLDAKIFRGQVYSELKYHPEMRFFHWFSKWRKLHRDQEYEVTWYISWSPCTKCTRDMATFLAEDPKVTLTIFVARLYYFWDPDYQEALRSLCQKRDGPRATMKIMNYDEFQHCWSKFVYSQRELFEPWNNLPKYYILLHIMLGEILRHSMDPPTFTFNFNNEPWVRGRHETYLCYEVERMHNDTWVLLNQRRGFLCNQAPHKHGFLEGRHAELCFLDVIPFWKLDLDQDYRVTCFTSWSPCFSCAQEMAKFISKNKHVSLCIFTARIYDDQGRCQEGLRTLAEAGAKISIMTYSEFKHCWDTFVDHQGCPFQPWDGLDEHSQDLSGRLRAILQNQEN

Tests used:
A3G [1] = molecular target: T1, A3G (Homo sapiens, UniProt Q9HC16); assay type: biochemical; details: ssDNA pre-incubated with RPA at sub-stoichiometric concentrations, FIG. 5D
T1 construct: Myc (C); His6 (C); made in house; host or cells: 293T cells (human embryonic kidney), transfected with pcDNA3.1-A3GMyc-His6, Ni-NTA purified
Experimental: Deaminase activity of purified enzyme and virion-associated A3G protein was examined as previously described. Briefly, A3G deamination reactions were performed in a total volume of 10 μl in 25 mM Tris, pH 7.0, and 0.01-1 fmol single-stranded (ss) deoxyoligonucleotide substrate at 37° C. The reaction was terminated by heating to 95° C. for 5 min. One μl of the reaction mixture was used for PCR amplification performed in 20 μl buffer S, using the following program: 1 cycle at 95° C. for 3 min, followed by 30 cycles of annealing at 61° C. for 30 s and denaturing at 94° C. for 30 s. Aliquots of the PCR products (10 μl) were incubated with Eco147I restriction enzyme for 1 h at 37° C. Completion of the restriction reaction was verified by using positive-control substrate containing CCU instead of CCC. Restriction-reaction products were loaded onto 14% gels and separated by PAGE. Gels were stained with SYBR gold nucleic acid stain diluted 1:10,000 in 0.5× Tris-Borate-EDTA buffer (TBE, pH 7.8), visualized by UV light (312 nm), captured by an Olympus C-5050 charge-coupled device (CCD) camera and analyzed by optical density (OD) scan using the TINA2.0 densitometry software. Assessment of A3G entrapped in virions was carried out with concentrated viruses stocks of 3-5 μg of p24/μl) suspended in PBS containing Triton X-100 at final concentration of 0.1% (vv) and 50 μg/ml RNase A (Sigma-Aldrich). […]

A3G [2] = molecular target: T1, A3G; experiment: A3G multimer disassembly on ssDNA in the presence of RPA (AFM, EMSA); details: A3G 1 min with ssDNA, then 29 min with RPA, in ice, FIG. 5B
Experimental: AFM imaging was performed at room temperature using a multimode scanning probe microscope with a Nanoscope 3A controller. AFM images were recorded on freshly cleaved mica surfaces. The mica surfaces were activated with 5 mM MgCl for 1 min and washed with distilled water. For binding assays, purified A3G or RPA and ssDNA were incubated on ice in buffer containing 25 mM Tris (pH 7) in 10 μl reaction volume. Samples were deposited on the mica surface for 1.5 minutes, and washed with distilled water. Images were taken with NSC 15 AFM tips using the tapping mode at their resonant frequency. The images were analyzed with WSxM SPIP software. Stoichiometry of bound A3G proteins was calculated by the flooding option, assuming a monomeric volume of approximately 60 nm^3.
SC (10 pmol) was 3′ labeled with dATP-biotin using 10 u terminal deoxynucleotidyl transferase (NEB) in NEBuffer 4 (NEB) supplemented with 0.25 mM CoCl2 and 10 μM dATP-biotin (Invitrogen). Labeled oligos (200 fmol) were incubated with A3G or RPA for 8 or 30 mM, respectively, at room temperature, in EMSA buffer: 50 mM Tris (pH 7.0), 50 mM NaCl, 0.1 mg/mL BSA and 10% glycerol, in 10 μL, reaction volume. Samples were resolved by 6% native PAGE, transferred to a Hybond N nylon membrane (GE Healthcare) using a semi-dry transfer apparatus (Biorad) and UV-crosslinked (302 nm) for 15 min. […]

[3] = system: SC or SU oligonucleotides (80 nt); experiment: Electrophoretic mobility shift assay (EMSA) of ssDNA binding; details: oligonucleotides (80 nt) with a single dU or dC, FIG. 10B
Experimental: SC (10 pmol) was 3′ labeled with dATP-biotin using 10 u terminal deoxynucleotidyl transferase (NEB) in NEBuffer 4 (NEB) supplemented with 0.25 mM CoCl2 and 10 μM dATP-biotin (Invitrogen). Labeled oligos (200 fmol) were incubated with A3G or RPA for 8 or 30 mM, respectively, at room temperature, in EMSA buffer: 50 mM Tris (pH 7.0), 50 mM NaCl, 0.1 mg/mL BSA and 10% glycerol, in 10 μL, reaction volume. Samples were resolved by 6% native PAGE, transferred to a Hybond N nylon membrane (GE Healthcare) using a semi-dry transfer apparatus (Biorad) and UV-crosslinked (302 nm) for 15 min. Following blocking with Casein blocking buffer (Sigma), the membrane was treated with horseradish peroxidase conjugated sterptavidine (Jackson) for 20 mM at RT, washed 6 times with TBS (pH 7.4) and visualized by enhanced chemiluminescence. Alternatively, complementary non-biotinylated oligonucleotides were annealed by heating to 95° C. and slow cooling to room temperature for 1 h. Following incubation with A3G, samples were resolved by PAGE, stained with SYBR Gold (Molecular Probes) and visualized by UV light (302 nm).

## RPA: ubiquitous nuclear heterotrimer required for DNA replication and involved in all major DNA repair pathways
A3G [1]
  inhibition of A3G cytidine deaminase activity by RPA: dose-dependent inhibition
A3G [2]
  effect on A3G multimer disassembly: inhibited A3G multimer disassembly
[3]
  binding to SU relative to SC: twofold more efficient
